Read-outs that look alike come from different tables or passages of the source.

For assay [1], the system named is M-SPOTIT1.1.
Assay [2] addresses chimeric opioid receptor of M-SPOTIT1.1 (MOR with the cytosolic domain of K-SPOTIT1.1) (Homo sapiens (Human)) (UniProt P35372). In words: cell-based or functional assay.

For “beta-endorphin (YGGFMTSEKSQTPLVTLFKNAIIKNAYKKGE; Beta-endorphin; UniProt P01189 237-267, looked up)”, the “activation of M-SPOTIT1.1” value in assay [1] (pH 9) is “activate”. The same measure, in the same setting: for leu-enkephalin the value was “activate”. With `CC(C)C[C@@H](NC(=O)[C@H](Cc1ccccc1)NC(=O)CNC(=O)[C@@H](C)NC(=O)[C@@H](N)Cc1ccc(O)cc1)C(=O)O` [DADLE], in assay [1] (pH 9), the “increase in fluorescence / signal change vs no drug” value is listed as 1.6 fold. On to `CC(C)NCC(O)c1ccc(O)c(O)c1` (centres unmarked) [isoproterenol], for which the “increase in fluorescence / signal change vs no drug” value in assay [1] (10 μM drug, 24 hours, fixed, imaged at pH 9) is given as 2.2 fold. Consider `C[C@@H](NC(=O)[C@@H](N)Cc1ccc(O)cc1)C(=O)NCC(=O)N(C)[C@@H](Cc1ccccc1)C(=O)NCCO` [DAMGO], for which, in assay [1], the “agonist exposure sufficient to generate a robust fluorescence signal” value was “requires longer incubation time” and the “biosensor activation in maturation time course” value is reported as “lower biosensor activation than fentanyl”. Besides, the “activation of M-SPOTIT1.1” value in assay [1] (pH 9) is “activate”.

B1: Gαi protein mimic nanobody 39 (Nb39) (VHH)
VHH: QVQLVESGGGLVRPGGSLRLSCVDSERTSYPMGWFRRAPGKEREFVASITWSGIDPTYADSVADRFTTSRDVANNTLYLQMNSLKHEDTAVYYCAARAPVGQSSSPYDYDYWGQGTQVTVSS
B1 displayed a cpGFP fluorescence of M-SPOTIT1.1 on incubation with MOR agonists in assay [2] of 3.2 fold.
